Reference: EP0785952B1, “GRAFT CERAMIDE HAVING AN ANTI-ELASTASE PROPERTY” (dated 1996)
“And” between values parts separate entries of the source, which are not always exact repeats. Equal entries are not always repeated.

The chains behind the UniProt entries cited, without tags or fusion partners. Residues count along the entry.
UniProt P00772, 27-266 limits assumed: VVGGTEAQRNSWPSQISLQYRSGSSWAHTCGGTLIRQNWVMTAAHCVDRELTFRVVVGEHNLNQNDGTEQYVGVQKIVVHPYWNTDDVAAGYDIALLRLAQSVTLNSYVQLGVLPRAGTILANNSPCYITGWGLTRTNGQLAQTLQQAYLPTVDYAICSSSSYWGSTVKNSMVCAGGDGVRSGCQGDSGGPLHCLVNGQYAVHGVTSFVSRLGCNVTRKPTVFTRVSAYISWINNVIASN

Molecular target: elastase pancreatique (Sus scrofa, UniProt P00772)
Experiment: Diffusion of pancreatic elastase in an agarose gel containing insoluble orcein-stained elastin (lysis area)
Settings: individual wells, lecture à t0 + 4 jours, Concentration GAG 0.15, GPFA016A 1.0000, HO3 0.12

CCCCCCCCCCCCCCOCC(O)CNC(=O)CCCCCCCC(O)C(O)CCCCCCO (stereo not drawn)
Diamètre 1: 8 mm^2
Diamètre 2: 8 mm^2 and 7 mm^2 (3×)
Surface (surface de lyse): 0.50 cm^2 and 0.44 cm^2 (3×)
